This note sets out measurements from PubChem BioAssay AID485364 (National Center for Advancing Translational Sciences (NCATS), 2010).

Values joined by “and” are separate entries in the source; they are usually repeats but may differ in a detail not shown here. Equal entries are not always repeated. The entries are a selection whose mix differs from that of the whole data set. Some tests of the compounds listed are not included; inactive here does not mean inactive elsewhere. Active and inactive are the calls of the source. Calls follow the shape of the dose curve; as a rule, active = well fitted inhibition curve with a large enough effect; inconclusive = small, poorly fitted or top-dose-only effect; inactive = no such curve, though single readings can be large or run the other way.
% is scaled to controls: 0 for no effect and ±100 for the full control effect.

The test has as its target Schistosoma mansoni thioredoxin glutathione reductase (TGR) (UniProt Q962Y6). The experiment in a line: qHTS Assay for the Inhibitors of Schistosoma Mansoni Peroxiredoxins. Also: nearly all actives have a fitted effect of over 60% in size. Conditions: purified TGR, DTNB reduction, TNB absorbance 405 nm; at 114 µM (top of the series). The text has this: Schistosomiasis is a major neglected tropical disease that currently affects over 200 million. It is caused by different species of flatworms, such as Schistosoma mansoni. Over the last century, drugs to treat the disease have evolved from potassium antimonyl tartrate, artemisinin, oxamniquine, to praziquantel, with praziquantel remaining the universally-used single drug of choice over the past three decades. However, transmission rates have changed little with praziquantel, and there is evidence for the development of drug resistant parasites. Because there is currently no suitable alternative therapy available, there is an urgent need to identify new targets and drugs for schistosomiasis treatment. Thioredoxin glutathione reductase (TGR), one uniquely positioned S. mansoni enzyme, has been identified as a major component of the worms' distinct and compressed antioxidant "firewall". TGR is a multifunctional enzyme that catalyzes the interconversion between reduced and oxidized forms of both glutathione (GSH) and thioredoxins, thus making it an attractive new antiparasitic target. Recently, a quantitative high-throughput screen of the NIH Molecular Libraries Small Molecule Repository (MLSMR, ~71K at the time of the screen in 2007) was performed using an assay that targeted both TGR and peroxiredoxin2 (Prx2, an H2O2-reducing enzymatic component of the S. mansoni redox "firewall") by following the decrease of NADPH fluorescence. […] Additional mechanistic link between exogenous NO donation and parasitic injury for the oxadiazole-2-oxide class of compounds was also expanded and better defined. Although the screen addressed both TGR and Prx2, the assay required post-screen target deconvolution for further characterization of the actives. In addition, the fluorescence assay was also subject to fluorescence interference from compound library members. We have developed a 1536-well-based kinetic HTS assay to address TGR alone. The assay followed the reduction of 5, 5'-dithiobis (2-nitrobenzoic acid) (DTNB) (Ellman's reagent) by NADPH and measured the increase in absorbance at 412 nm of the reaction product, TNB. […] This assay format can be used to screen the current MLSMR collection (with >300K compounds available) to find novel TGR inhibitors. Furoxan is a good choice to serve as a positive control in the primary HTS assay.
Three microliters of reagents (100 uM NADPH and 20 nM TGR or 100 uM NADPH as no-enzyme control) were dispensed into 1,536-well black clear-bottomed plates. Compounds (23 nL) were transferred via Kalypsys pin tool equipped with 1536-pin array (10 nL slotted pins, V&P Scientific, San Diego, CA). The plates were then be incubated for 15 min at room temperature, and 1 uL aliquot of 500 uM NADPH were added, immediately followed by a 1 uL aliquot of 15 mM DTNB to start the reaction. The plate was transferred to a ViewLux high-throughput CCD imager (Perkin-Elmer, Wellesley, MA) where kinetic measurements of the TNB absorbance were acquired using a 405 excitation filter. Throughout the screen, reagent bottles and all liquid lines were made light-tight to minimize reagent degradation. All screening operations were performed on a fully integrated robotic system (Kalypsys, San Diego, CA) containing one RX-130 and two RX-90 anthropomorphic robotic arms (Staubli, Duncan, SC). Library plates were screened starting from the lowest and proceeding to the highest concentration, and a "double-dipping" step of the highest concentration was required to access higher concentrations of compounds. Vehicle-only plates, with DMSO being pin-transferred to the entire column 5-48 compound area, were inserted uniformly at the beginning and the end of each library in order to monitor for and record any shifts in the background, which can be affected by reagent dispensers or loss in enzyme activity overtime. […]
Background: Quantitative high-throughput screening tests each substance at several concentrations.
Regarding `CN(C)c1ccc(C(=O)NCC2(N(C)C)CCCCC2)cc1`, the activity change, negative = inhibition is inactive: 16.3%.
As for `CN(C)C1CCCC1OC(=O)C(O)(c1ccccc1)c1ccccc1` (stereo not drawn), the activity change, negative = inhibition was inactive: -1.85%.
In the case of `Cc1ccccc1C(=O)NCC1(N2CCCCC2)CCCCC1`, the activity change, negative = inhibition was inactive: -23.7%.
With `CN(C)C1(CNC(=O)c2ccccc2[N+](=O)[O-])CCCCC1`, the activity change, negative = inhibition is inactive: 4.28%.
On to `CCCCOc1ccccc1C(=O)NCC1(N(C)C)CCCCC1`, for which the activity change, negative = inhibition is inactive: -0.628%.
To `O=C(NCC1(N2CCCCC2)CCCCC1)c1cc(F)c(F)cc1Cl` belongs inactive: 0.471%.
Consider `C=CCN1CCN(CCOC(=O)C(O)(c2ccccc2)c2ccccc2)CC1`, for which the activity change, negative = inhibition is inactive: 1.04%.
In the case of `O=C(NCC1(N2CCCCC2)CCCCC1)c1cccc(Br)c1`, the activity change, negative = inhibition was inactive: -3.58%.
On to `CCN1CCCC(OC(=O)C2(O)c3ccccc3C=Cc3ccccc32)C1` (stereo not drawn), for which the activity change, negative = inhibition is inactive: -0.392%.
On to `Cc1cc(C(=O)NCC2(N3CCCCC3)CCCCC2)ccc1[N+](=O)[O-]`, for which the activity change, negative = inhibition was inactive: 22.1%.
Consider `CCOc1cccc(C(=O)NCC2(N(C)C)CCCCC2)c1`, for which the activity change, negative = inhibition was inactive: 42.5%.
As for `COc1ccc(C(=O)NCC2(N(C)C)CCCCC2)cc1`, the activity change, negative = inhibition was inactive: -3.77%.
For `O=C(NCC1(N2CCCCC2)CCCCC1)c1cc([N+](=O)[O-])ccc1Cl`, the activity change, negative = inhibition was inactive: -19.8%.
On to `CN1[C@@H]2CC[C@H]1CC(OC(=O)C(O)(c1ccccc1)c1ccccc1)C2` (stereo partly drawn), for which the activity change, negative = inhibition is inactive: 14.4%.
For `CC(C)N1C(=O)CC2(CCN(CCOC(=O)C(O)(c3ccccc3)c3ccccc3)CC2)C1=O`, the activity change, negative = inhibition was inactive: -0.317%.
`COc1cc(SC)ccc1C(=O)NCC1(N(C)C)CCCCC1`: the activity change, negative = inhibition is inactive: 6.54%.
Turning to `CN(C)C1(CNC(=O)c2cccc(Cl)c2)CCCCC1`, the activity change, negative = inhibition was inactive: 1.37%.
On to `CCN(CC)CC(C)C(C)OC(=O)C(O)(c1ccccc1)c1ccccc1` (stereo not drawn), for which the activity change, negative = inhibition is inactive: -10.3%.
In the case of `CN(C)C1(CNC(=O)c2ccccc2F)CCCCC1`, the activity change, negative = inhibition was inactive: 4.55%.
For the compound `Cc1ccc(C(=O)NCC2(N3CCCCC3)CCCCC2)cc1`, the activity change, negative = inhibition is inactive: 4.16%.
For the compound `O=C(OC1CN2CCC1CC2)C(CO)(c1ccccc1)c1ccccc1` (stereo not drawn), the activity change, negative = inhibition was inactive: -11.9%.
Consider `COc1cccc(C(=O)NCC2(N3CCOCC3)CCCCC2)c1`, for which the activity change, negative = inhibition is inactive: 4.46%.
As to `CC(C)COc1ccc(C(=O)NCC2(N(C)C)CCCCC2)cc1`, the activity change, negative = inhibition is inactive: 5.05%.
For the compound `COc1cc(C(=O)NCC2(N(C)C)CCCCC2)cc(OC)c1OC`, the activity change, negative = inhibition is inactive: 4.08%.
In the case of `Cc1cccc(C(=O)NCC2(N(C)C)CCCCC2)c1`, the activity change, negative = inhibition was inactive: 2.52%.
To `CN(C)c1cccc(C(=O)NCC2(N(C)C)CCCCC2)c1` belongs inactive: 2.7%; to `CC(C)Oc1ccc(C(=O)NCC2(N(C)C)CCCCC2)cc1`, inactive: 1.26% and inactive: -7.91%.
Consider `CN(C)C1(CNC(=O)c2ccc(Br)cc2)CCCCC1`, for which the activity change, negative = inhibition is inactive: 2.75%.
On to `COc1cc(C(=O)NCC2(N(C)C)CCCCC2)c([N+](=O)[O-])cc1OC`, for which the activity change, negative = inhibition was inactive: 0%.
To `COc1ccc(C(=O)NCC2(N(C)C)CCCCC2)cc1Cl` belongs inactive: -0.946%.
To `COc1ccc(Cl)cc1C(=O)NCC1(N(C)C)CCCCC1` belongs inactive: 2.61%.
Consider `COc1cccc(C(=O)NCC2(N3CCCCC3)CCCCC2)c1`, for which the activity change, negative = inhibition was inactive: -2.35%.
To `O=C(NCC1(N2CCCCC2)CCCCC1)c1cccc(Cl)c1` belongs inactive: -2.74%.
